Earlier results in patent publication US20100075926A1, “ACTIVATION OF HISTONE DEACETYLASE 1 (HDAC1) PROTECTS AGAINST DNA DAMAGE AND INCREASES NEURONAL SURVIVAL” (priority 2008, published 2010).

Amino acid sequences for entries named in this document (tags omitted).
UniProt Q9BY41, whole entry, species assumed: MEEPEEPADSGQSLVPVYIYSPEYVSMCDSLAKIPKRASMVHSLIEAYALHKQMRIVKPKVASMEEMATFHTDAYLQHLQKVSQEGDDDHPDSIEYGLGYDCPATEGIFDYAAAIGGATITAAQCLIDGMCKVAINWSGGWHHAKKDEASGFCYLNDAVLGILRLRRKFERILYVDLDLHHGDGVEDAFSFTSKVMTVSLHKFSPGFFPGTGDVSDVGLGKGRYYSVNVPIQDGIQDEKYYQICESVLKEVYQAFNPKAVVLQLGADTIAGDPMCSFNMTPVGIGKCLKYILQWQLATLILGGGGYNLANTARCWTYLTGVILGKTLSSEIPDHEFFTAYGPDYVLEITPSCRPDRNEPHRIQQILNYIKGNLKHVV
UniProt Q13547, whole entry: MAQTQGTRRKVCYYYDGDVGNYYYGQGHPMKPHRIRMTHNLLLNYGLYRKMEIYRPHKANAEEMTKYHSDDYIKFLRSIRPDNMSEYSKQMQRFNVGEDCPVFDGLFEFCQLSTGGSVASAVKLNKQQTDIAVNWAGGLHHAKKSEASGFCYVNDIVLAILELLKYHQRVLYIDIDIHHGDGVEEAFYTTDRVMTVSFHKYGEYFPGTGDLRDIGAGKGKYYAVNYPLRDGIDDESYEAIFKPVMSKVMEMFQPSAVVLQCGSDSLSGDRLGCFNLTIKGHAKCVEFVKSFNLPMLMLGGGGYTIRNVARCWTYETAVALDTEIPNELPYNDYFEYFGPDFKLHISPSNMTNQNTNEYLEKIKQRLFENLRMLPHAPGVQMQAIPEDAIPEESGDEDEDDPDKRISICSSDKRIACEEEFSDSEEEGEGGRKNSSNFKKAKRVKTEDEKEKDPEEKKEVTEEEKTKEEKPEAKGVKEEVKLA

Tests used:
HDAC8 = HDAC8 (Homo sapiens, UniProt Q9BY41); settings: 1 μM; cited from earlier work
HDAC1 = HDAC1 (Homo sapiens, UniProt Q13547); settings: 1 μM; cited from earlier work

## Nc1ccccc1NC(=O)c1ccc(CNC(=O)OCc2cccnc2)cc1 [MS-275]
HDAC8
  effects on HDAC8: negligible effects
HDAC1
  inhibition of HDAC1 activity: over 70%
